The list is not random: actives were taken first. Their share in the collection is about 4.2%.
MC4R antag cAMP: MC4R antagonists of cAMP signaling, primary screen, cell-based, TR-FRET, antagonist arm of biased-ligand search | Melanocortin receptor 4 (Homo sapiens), P32245 | MC4R-expressing cells, MTII-stimulated cAMP, LANCE TR-FRET | inhibition, % at 6.5 µM | actives 0.48% (n = 360,000) | AID 540295, 2011;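 active = inhibition above its plate's cutoff, the mean of tested wells on that plate plus 3 SD, cut at about 29% in these data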
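Material: human MC4R-expressing U2OS cells. Probe or stimulus: Melanotan II challenge. Dosing: 6.5 µM single dose. Times: 30-min compound, 1-h challenge, 1-h detection, room temperature. Technique: TR-FRET with Eu-cAMP and labeled anti-cAMP, 671 nm. Replication: singlicate.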
NALP1 inh: NALP1 inflammasome inhibitors in reconstituted yeast, colorimetric, S. cerevisiae, triplicate retest; S. cerevisiae NALP1/ASC/caspase-1 growth, X-gal OD620, 72 h; actives 0.61% (n = 280,000); inhibition, % at 10 µM; in the data active = inhibition mostly above about 24%, no sharp cut-off; inactive = mostly below about 32%
ALR inh: inhibitors of human ALR sulfhydryl oxidase, primary screen, biochemical, H2O2 detection, HRP-luminol luminescence, single point | AID 485317, 2010 | inhibition, % (test concentration not listed) | purified ALR, DTT oxidation | FAD-linked sulfhydryl oxidase ALR (Homo sapiens), P55789 | hit rate 3.8% among 290,000;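 active = mean and each replicate at 75% or more; inconclusive = only one of the two met; inactive = neither met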;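 also: stock transfer was 7.5 nL into about 7.5 µL; 0% = neutral wells and 100% = wells with inactivated enzyme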
MC4R barr agon: MC4R agonists recruiting beta-arrestin, primary screen, cell-based, luminescence, agonist arm of biased-ligand search. Melanocortin receptor 4 (Homo sapiens), P32245. U2OS MC4R beta-arrestin complementation; percent of melanotan II response, DMSO zero. activation, % at 8.9 µM. actives 0.98% (n = 360,000). AID 540308, 2011;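 active = activation above a per-plate cutoff, the mean activation of sample wells on that plate plus 3 SD, cut at about 8% in these data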
Yeast UUG start: modulators of start codon recognition fidelity in yeast; AID 602363; hit rate 0.13% among 350,000; activity score, % at 18.7 µM; S. cerevisiae UUG-firefly luciferase reporter, luminescence/redox ratio;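 active = replicate mean at a twofold rise or more, about +100% in these data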;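 note: firefly luciferase made from a UUG start codon reports start codon fidelity; reporter light over untreated wells divided by growth signal over untreated wells; some hits fall short of that in this replicate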
HDAC3 inh: HDAC3 deacetylase inhibitors, primary screen, biochemical, fluorescence, cell-free homogeneous; Histone deacetylase 3 (Homo sapiens), O15379; recombinant HDAC3, fluorogenic peptide/trypsin coupled; inhibition, % at 8.3 µM; actives 0.15% (n = 320,000); AID 2718, 2010; in the data active = inhibition above about 26%, passing the limit was not always enough; inconclusive = no clear call, values can overlap the other calls
A number is an active result; – = inactive; ? = inconclusive; · = no result given.

By UniProt entry, the sequences of proteins in these tests, tags left out.
Melanocortin receptor 4 (Homo sapiens), P32245, UniProt P32245, whole entry, looked up: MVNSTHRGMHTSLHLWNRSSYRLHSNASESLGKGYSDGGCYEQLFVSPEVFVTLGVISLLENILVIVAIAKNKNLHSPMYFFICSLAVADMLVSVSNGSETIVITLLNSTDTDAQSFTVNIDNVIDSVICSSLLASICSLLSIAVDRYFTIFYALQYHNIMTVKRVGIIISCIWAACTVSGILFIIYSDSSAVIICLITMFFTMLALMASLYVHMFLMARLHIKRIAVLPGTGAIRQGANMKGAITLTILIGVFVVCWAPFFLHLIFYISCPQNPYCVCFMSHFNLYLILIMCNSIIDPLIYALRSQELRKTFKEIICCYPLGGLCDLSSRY

SMILES | MC4R antag cAMP | NALP1 inh | ALR inh | MC4R barr agon | Yeast UUG start | HDAC3 inh
O=C(CSc1nccc(=O)[nH]1)Nc1ccc2ccccc2c1 | – | · | – | – | – | –
CC(=O)Nc1ccc(C(=O)CSc2nccc(=O)[nH]2)cc1 | – | – | 99 | – | – | 62
O=C(Cn1nnc(-c2ccccc2F)n1)OCC(=O)c1ccccc1 | – | – | 93 | – | · | –
C[C@H](CO)N1C[C@H](C)[C@H](CN(C)C(=O)Cc2ccncc2)Oc2cc(C#CC3(O)CCCC3)ccc2S1(=O)=O | · | · | · | · | – | ·
O=C(Oc1coc(CSc2nnc(NC(=O)C3CC3)s2)cc1=O)c1c(F)cccc1F | – | – | 97 | – | – | –
Cc1ccc(C(=O)Oc2coc(CSc3nnc(NC(=O)c4cccs4)s3)cc2=O)cc1 | – | – | – | 9.2 | · | –
CO[C@H]1CN(C)C(=O)c2cc(NC(=O)NC(C)C)ccc2OC[C@@H](C)N(C(=O)CC2CC2)C[C@@H]1C | · | · | · | · | – | ·
Cc1ccccc1Nc1cc(C)c2c(O)cccc2n1 | – | 56 | – | – | – | –
COc1ccc(Nc2cc(C)c3c(O)cccc3n2)cc1 | – | · | 84 | – | – | ·
Cc1ccc(Nc2cc(C)c3c(O)cccc3n2)cc1C | – | · | – | – | – | –
CC(C)(C)OC(=O)NCCCC[C@H](NC(=O)c1[nH]cnc1C(=O)Nc1ccc(Cl)cc1)C(=O)OC(C)(C)C | – | · | – | – | – | ?
C[C@@H](NC(=O)c1nc[nH]c1C(=O)N[C@@H](CCCCNC(=O)OC(C)(C)C)C(=O)OC(C)(C)C)c1ccccc1 | – | – | – | – | – | 34
C[C@H](NC(=O)c1nc[nH]c1C(=O)N[C@@H](Cc1ccccc1)C(=O)OC(C)(C)C)c1ccccc1 | – | – | · | – | – | 28
CC(C)(C)OC(=O)NCCCC[C@H](NC(=O)c1[nH]cnc1C(=O)N[C@@H](Cc1ccccc1)C(=O)OCc1ccccc1)C(=O)OC(C)(C)C | – | · | – | – | – | 38
CC(C)(C)OC(=O)NCCCC[C@H](NC(=O)c1[nH]cnc1C(=O)Nc1ccccc1)C(=O)OC(C)(C)C | – | · | – | – | – | 37
CC(C)(C)OC(=O)[C@H](Cc1ccccc1)NC(=O)c1nc[nH]c1C(=O)N[C@@H](CCCCN)C(=O)OC(C)(C)C | – | · | – | – | – | –
C[C@@H](NC(=O)c1nc[nH]c1C(=O)N[C@@H](Cc1ccccc1)C(=O)OC(C)(C)C)c1ccccc1 | – | – | – | – | – | –
O=C(Cc1ccncc1)NCC[C@H]1CC[C@@H](NC(=O)C2CC2)[C@@H](CO)O1 | · | · | · | · | – | ·
CC(C)NC(=O)N(C)C[C@@H]1Oc2ncc(-c3cccc(C#N)c3)cc2C(=O)N([C@H](C)CO)C[C@H]1C | · | · | · | · | – | ·
C[C@H]1CCCCO[C@H](CN(C)C(=O)Nc2ccc(F)cc2)[C@@H](C)CN([C@@H](C)CO)C(=O)c2cc(NC(=O)c3ccccc3)ccc2O1 | · | · | · | · | – | ·
COc1ccc(NC(=O)N(C)C[C@H]2Oc3ccc(NS(=O)(=O)c4ccc(OC)cc4)cc3C(=O)N([C@@H](C)CO)C[C@@H]2C)cc1 | · | · | · | · | – | ·
Cc1cc(O)c(/C=N/Nc2ccc(Cl)cc2)c(=O)o1 | – | – | 98 | – | · | –
Cc1cc(O)c(/C=N/Nc2cccc(Cl)c2)c(=O)o1 | – | – | · | – | · | ·
CC1(C)Oc2ccc3ccc(=O)oc3c2/C(=C/Nc2ccccn2)C1=O | – | – | – | – | – | –
CC1(C)Oc2ccc3ccc(=O)oc3c2/C(=C/NNC(N)=S)C1=O | – | – | 88 | – | – | ·
SMILES | MC4R antag cAMP | NALP1 inh | ALR inh | MC4R barr agon | Yeast UUG start | HDAC3 inh
CN/C=C1\C(=O)C(C)(C)Oc2ccc3ccc(=O)oc3c21 | – | – | – | – | – | –
CC1(C)Oc2ccc3ccc(=O)oc3c2/C(=C/Nc2cccc(O)c2)C1=O | – | – | – | 8.6 | · | –
CO[C@H]1CN(C)C(=O)c2cc(NC(=O)C3CCC3)ccc2OC[C@@H](C)N(Cc2ccc(F)cc2)C[C@H]1C | · | · | · | · | – | ·
Cc1noc(C)c1NC(=O)Nc1ccc2c(c1)C(=O)N([C@@H](C)CO)C[C@@H](C)[C@@H](CN(C)C(=O)Nc1ccccc1)O2 | · | · | · | · | – | ·
COc1ccc2[nH]c3c(N4CCN(Cc5ccc6c(c5)OCO6)CC4)ncnc3c2c1 | – | – | 97 | – | – | –
COc1ccc(-c2cc3ccccc3oc2=O)cc1NC(=S)NC(=O)c1ccc2c(c1)OCCO2 | – | – | – | 9.4 | – | –
CCOC(=O)c1sc(-c2ccccc2)cc1NC(=O)Nc1ccc([N+](=O)[O-])cc1 | – | – | 99 | – | · | –
C[C@@H]1CN([C@@H](C)CO)C(=O)c2cc(/C=C/c3ccccc3)cnc2O[C@@H]1CN(C)Cc1ccc2c(c1)OCO2 | · | · | · | · | – | ·
N#Cc1cc2c(cc1NC(=O)CCn1cnnn1)OCO2 | – | 36 | – | – | – | –
CC=Cc1ccc2n(c1=O)C[C@@H]1[C@@H](CO)[C@H](C(=O)NCCC)[C@H]2N1C(=O)C1CCCC1 (mixture of isomers) | · | · | · | · | – | ·
Nc1ccc(Oc2cc(N)cc(Oc3ccccc3)c2)cc1 | – | – | 100 | – | – | –
O=C(Nc1ccc(O)cc1)C1CCCN1S(=O)(=O)c1ccc(F)cc1 (stereo not given) | – | · | 98 | – | – | –
C[C@H]1CN([C@@H](C)CO)C(=O)Cc2cc(NC(=O)C3CCCCC3)ccc2O[C@H]1CN(C)S(=O)(=O)c1ccccc1 | · | · | · | · | – | ·
CCOc1cc(CNc2ccccc2)cc(Br)c1OCc1ccc(F)cc1 | – | 43 | – | – | – | –
O=C(C[C@H]1C=C[C@@H](NC(=O)c2cccc(F)c2)[C@@H](CO)O1)NCc1ccc(Oc2ccccc2)cc1 | · | · | · | · | – | ·
C[C@H]1CN([C@@H](C)CO)C(=O)c2cccc(NC(=O)c3cnccn3)c2O[C@H]1CN(C)C(=O)Nc1ccc(C(F)(F)F)cc1 | · | · | · | · | – | ·
O=C(C[C@H]1C[C@H]2c3cc(NC(=O)C4CCC4)ccc3O[C@H]2[C@@H](CO)O1)NCCN1CCCCC1 | · | · | · | · | – | ·
CCS(=O)(=O)C1=NN2C(=N)/C(=C\c3ccc(OC(=O)c4ccco4)cc3)C(=O)N=C2S1 | – | – | – | – | – | –
CCC(CC)C1=NN2C(=N)/C(=C/c3ccc(OC(=O)c4ccco4)cc3)C(=O)N=C2S1 | – | – | – | – | – | 32
COc1cc(/C=C2\CCCc3c2nc2ccccc2c3C(=O)O)cc(Br)c1O | – | – | 97 | – | – | –
COc1ccc(-c2nc(CS(=O)CC(=O)NC3CCC(C)CC3)c(C)o2)cc1OC (stereo not given) | – | – | 99 | – | – | –
